Measurements taken from patent publication US12139488B2, “Pyrido[3,2-d]pyrimidine compounds uses thereof for treating a proliferative disease” (Universite de Montreal, priority 2021, dated 2024).
Read-outs that look alike come from different tables or passages of the source.

Protein sequences, listed by entry. Tags and fused reporters are not part of them.
UniProt P15056, whole entry: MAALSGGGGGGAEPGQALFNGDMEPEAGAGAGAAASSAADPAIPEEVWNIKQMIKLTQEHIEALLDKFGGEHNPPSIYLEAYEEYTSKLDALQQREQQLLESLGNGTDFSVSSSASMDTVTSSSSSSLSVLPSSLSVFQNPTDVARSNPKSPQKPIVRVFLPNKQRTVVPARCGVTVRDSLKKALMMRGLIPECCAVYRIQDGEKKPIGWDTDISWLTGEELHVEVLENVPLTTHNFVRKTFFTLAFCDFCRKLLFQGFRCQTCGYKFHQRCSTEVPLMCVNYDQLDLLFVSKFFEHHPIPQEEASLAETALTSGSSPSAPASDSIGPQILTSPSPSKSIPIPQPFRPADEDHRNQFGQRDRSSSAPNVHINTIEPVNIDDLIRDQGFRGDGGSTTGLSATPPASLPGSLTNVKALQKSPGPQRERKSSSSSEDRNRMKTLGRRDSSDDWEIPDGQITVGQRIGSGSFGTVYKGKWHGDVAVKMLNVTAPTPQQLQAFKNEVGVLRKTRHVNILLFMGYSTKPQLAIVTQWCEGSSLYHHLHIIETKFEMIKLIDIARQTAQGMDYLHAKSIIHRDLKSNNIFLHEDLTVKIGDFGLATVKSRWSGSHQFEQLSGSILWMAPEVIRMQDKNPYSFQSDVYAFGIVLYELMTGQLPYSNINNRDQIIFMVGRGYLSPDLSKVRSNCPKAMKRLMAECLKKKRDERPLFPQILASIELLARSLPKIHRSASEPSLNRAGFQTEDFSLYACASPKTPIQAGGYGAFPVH
UniProt P04049, whole entry: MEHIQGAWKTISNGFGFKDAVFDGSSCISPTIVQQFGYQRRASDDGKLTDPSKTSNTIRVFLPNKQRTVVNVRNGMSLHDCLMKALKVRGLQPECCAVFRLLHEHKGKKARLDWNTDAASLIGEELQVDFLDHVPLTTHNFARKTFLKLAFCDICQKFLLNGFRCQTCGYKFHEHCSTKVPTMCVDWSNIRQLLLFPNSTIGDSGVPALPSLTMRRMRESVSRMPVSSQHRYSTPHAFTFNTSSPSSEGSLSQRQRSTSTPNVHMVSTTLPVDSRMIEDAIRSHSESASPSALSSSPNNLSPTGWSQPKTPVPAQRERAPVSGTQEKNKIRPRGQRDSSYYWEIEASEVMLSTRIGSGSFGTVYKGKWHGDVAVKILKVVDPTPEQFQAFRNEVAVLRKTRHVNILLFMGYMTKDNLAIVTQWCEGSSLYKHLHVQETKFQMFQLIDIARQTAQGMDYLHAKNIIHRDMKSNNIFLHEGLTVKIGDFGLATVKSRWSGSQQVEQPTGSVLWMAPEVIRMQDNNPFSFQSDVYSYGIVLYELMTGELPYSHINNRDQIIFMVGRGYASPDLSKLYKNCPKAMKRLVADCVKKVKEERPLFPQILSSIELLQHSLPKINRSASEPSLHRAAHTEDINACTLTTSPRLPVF

Key:
[1] = molecular target: BRAF (Homo sapiens (Human), UniProt P15056); test: BRAF kinase activity assay (ADP-Glo)
[2] = molecular target: CRAF (Homo sapiens, UniProt P04049); test: CRAF kinase activity assay (ADP-Glo)
[3] = tested on: pERK in HCT-116 cells (KRAS G13D); test: Phospho-ERK inhibition (AlphaLISA SureFire Ultra p-ERK 1/2), HCT116; conditions: for HCT116 pERK % Ymin (lowest value of the IC50 curve): Ymin above −20% = minimal or no paradoxical activation
Summary of the method: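 Overnight-seeded cells received compound for an hour before lysis, and phospho-ERK1/2 was then measured with an AlphaLISA SureFire Ultra kit. Percent inhibition relative to vehicle, after trametinib background subtraction, gave IC50 by curve fitting.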

[4] = read-out: Kinase IC50 (nM) BRAF
[5] = read-out: Kinase IC50 (nM) CRAF
[6] = read-out: HCT116 pERK IC50, HCT116 cells, class symbol before the bracket
[7] = read-out: Kinase IC50 (nM), BRAF biochemical kinase assay, BRAF
[8] = read-out: Kinase IC50 (nM), CRAF biochemical kinase assay, CRAF
[9] = read-out: HCT116 pERK IC50, HCT116 cells
[10] = read-out: Kinase IC50 (nM) BRAF, tested form: formic acid salt
[11] = read-out: Kinase IC50 (nM) CRAF, tested form: formic acid salt
[12] = HCT116 cells, Ymin in brackets, tested form: formic acid salt
[13] = read-out: HCT116 pERK IC50, HCT116 cells, class symbol before the bracket, tested form: formic acid salt
[14] = lowest % inhibition value of the IC50 curve, HCT116
[15] = read-out: HCT116 pERK IC50 in μM, HCT116 cells, 1 h treatment
[16] = read-out: HCT116 pERK IC50, HCT116 cells, class symbol

CN1CCN(S(=O)(=O)c2cn(-c3ccc4ncnc(Nc5c(F)ccc(NS(=O)(=O)c6ccccc6Cl)c5F)c4n3)c3ccccc23)CC1
IC50 [1, 4]: < 1 nM | IC50 [2, 5]: 10 to 50 nM | HCT116 pERK Ymin % ([3]; HCT116 cells, Ymin in brackets): −10% | IC50 [3, 6]: < 0.5 µM

CC1(O)CCN(c2cccc3c2nnn3-c2ccc3ncnc(Nc4c(F)ccc(NS(=O)(=O)c5cccc(Cl)c5Cl)c4F)c3n2)CC1
IC50 [1, 7]: 1 to 10 nM | IC50 [2, 8]: 10 to 50 nM | HCT116 pERK % Ymin (lowest value of the IC50 curve) ([3]; HCT116 cells): 6% | IC50 [3, 9]: < 0.5 µM

CC1(O)CCCN(c2cccc3c2nnn3-c2ccc3ncnc(Nc4c(F)ccc(NS(=O)(=O)c5cccc(Cl)c5Cl)c4F)c3n2)CC1 (stereo not drawn)
IC50 [1, 7]: > 10 nM | IC50 [2, 8]: > 50 nM | HCT116 pERK % Ymin (lowest value of the IC50 curve) ([3]; HCT116 cells): 6% | IC50 [3, 9]: < 0.5 µM

Cc1c(Cl)cccc1S(=O)(=O)Nc1ccc(F)c(Nc2ncnc3ccc(-n4cc(C(=O)N5CCCNCC5)c5ccccc54)nc23)c1F
IC50 [1, 10]: < 1 nM | IC50 [2, 11]: 10 to 50 nM | HCT116 pERK Ymin % [3, 12]: −2% | IC50 [3, 13]: 1 to 10 µM

Cc1c(Cl)cccc1S(=O)(=O)Nc1ccc(F)c(Nc2ncnc3ccc(-n4cc(C(=O)N5CCNC[C@@H]5C)c5ccccc54)nc23)c1F
IC50 [1, 10]: < 1 nM | IC50 [2, 11]: < 10 nM | HCT116 pERK Ymin % [3, 12]: 2.5% | IC50 [3, 13]: < 0.5 µM

O=S(=O)(Nc1ccc(F)c(Nc2ncnc3ccc(-n4cnc5c(N6CCO[C@H](CO)C6)cccc54)nc23)c1F)c1cccc(Cl)c1Cl
IC50 [1, 7]: < 1 nM | IC50 [2, 8]: < 10 nM | HCT116 pERK % Ymin (lowest value of the IC50 curve) ([3]; HCT116 cells): 1% | IC50 [3, 9]: < 0.5 µM

COC1CCCN(c2cccc3c2ncn3-c2ccc3ncnc(Nc4c(F)ccc(NS(=O)(=O)c5cccc(Cl)c5Cl)c4F)c3n2)C1 (single isomer, unassigned) [676]
IC50 [1, 7]: 1 to 10 nM | IC50 [2, 8]: 10 to 50 nM | HCT116 pERK % Ymin (lowest value of the IC50 curve) ([3]; HCT116 cells): −4% | IC50 [3, 9]: < 0.5 µM

CN(C)S(=O)(=O)c1cn(-c2ccc3ncnc(Nc4c(F)ccc(NS(=O)(=O)c5ccccc5Cl)c4F)c3n2)c2ccccc12
IC50 [1, 4]: 1 to 10 nM | IC50 [2, 5]: < 10 nM | HCT116 pERK Ymin % ([3]; HCT116 cells, Ymin in brackets): −12% | IC50 [3, 6]: < 0.5 µM

O=S(=O)(Nc1ccc(F)c(Nc2ncnc3ccc(-n4cnc5c(CN6CCOC[C@@H]6CO)cccc54)nc23)c1F)c1ccccc1Cl
IC50 [1, 4]: 1 to 10 nM | IC50 [2, 5]: 10 to 50 nM | HCT116 pERK Ymin % ([3]; HCT116 cells, Ymin in brackets): −7% | IC50 [3, 6]: 1 to 10 µM

CC1(N)CCN(c2cccc3c2nnn3-c2ccc3ncnc(Nc4c(F)ccc(NS(=O)(=O)c5cccc(Cl)c5Cl)c4F)c3n2)CC1
IC50 [1, 7]: < 1 nM | IC50 [2, 8]: < 10 nM | HCT116 pERK % Ymin (lowest value of the IC50 curve) ([3]; HCT116 cells): 0% | IC50 [3, 9]: < 0.5 µM

Cc1c(Cl)cccc1S(=O)(=O)Nc1ccc(F)c(Nc2ncnc3ccc(-n4nc(C(=O)N5CC[C@@H](CO)C5)c5ccccc54)nc23)c1F
IC50 [1, 4]: 1 to 10 nM | IC50 [2, 5]: 10 to 50 nM | HCT116 pERK Ymin % ([3]; HCT116 cells, Ymin in brackets): −1.1% | IC50 [3, 6]: < 0.5 µM

Cc1c(Cl)cccc1S(=O)(=O)Nc1ccc(F)c(Nc2ncnc3ccc(-n4cc(C(=O)N5CCCCC5CCO)c5ccccc54)nc23)c1F (stereo not drawn)
IC50 [1, 4]: 1 to 10 nM | IC50 [2, 5]: > 50 nM | HCT116 pERK Ymin % ([3]; HCT116 cells, Ymin in brackets): 0.4% | IC50 [3, 6]: < 0.5 µM

CCC1(O)CCN(c2cccc3c2nnn3-c2ccc3ncnc(Nc4c(F)ccc(NS(=O)(=O)c5cccc(Cl)c5Cl)c4F)c3n2)CC1
IC50 [1, 7]: 1 to 10 nM | IC50 [2, 8]: 10 to 50 nM | HCT116 pERK % Ymin (lowest value of the IC50 curve) ([3]; HCT116 cells): −7% | IC50 [3, 9]: < 0.5 µM

COc1ccc(S(=O)(=O)Nc2ccc(F)c(Nc3ncnc4ccc(-c5ccc(C)nc5)nc34)c2F)c(C)c1
IC50 [1, 4]: > 10 nM | IC50 [2, 5]: > 50 nM | HCT116 pERK Ymin % ([3]; HCT116 cells, Ymin in brackets): −1% | IC50 [3, 6]: 1 to 10 µM

Cc1c(Cl)cccc1S(=O)(=O)Nc1ccc(F)c(Nc2ncnc3ccc(-n4nc(C(=O)N5CCOCC5)cc4C)nc23)c1F
IC50 [1, 4]: 1 to 10 nM | IC50 [2, 5]: 10 to 50 nM | HCT116 pERK Ymin % ([3]; HCT116 cells, Ymin in brackets): −1% | IC50 [3, 6]: 1 to 10 µM

COCCNC(=O)c1nn(-c2ccc3ncnc(Nc4c(F)ccc(NS(=O)(=O)c5cccc(F)c5C)c4F)c3n2)c2ccccc12
IC50 [1, 4]: 1 to 10 nM | IC50 [2, 5]: 10 to 50 nM | HCT116 pERK Ymin % ([3]; HCT116 cells, Ymin in brackets): −8% | IC50 [3, 6]: < 0.5 µM

CO[C@H]1CCCN(c2cccc3c2nnn3-c2ccc3ncnc(Nc4c(F)ccc(NS(=O)(=O)c5cccc(Cl)c5Cl)c4F)c3n2)C1
IC50 [1, 7]: > 10 nM | IC50 [2, 8]: > 50 nM | HCT116 pERK % Ymin (lowest value of the IC50 curve) ([3]; HCT116 cells): −3% | IC50 [3, 9]: < 0.5 µM

COC1(C)CCN(c2cccc3c2ncn3-c2ccc3ncnc(Nc4c(F)ccc(NS(=O)(=O)c5cccc(Cl)c5Cl)c4F)c3n2)CC1
IC50 [1, 7]: 1 to 10 nM | IC50 [2, 8]: 10 to 50 nM | HCT116 pERK % Ymin (lowest value of the IC50 curve) ([3]; HCT116 cells): −8% | IC50 [3, 9]: < 0.5 µM

Cc1c(F)cccc1S(=O)(=O)Nc1ccc(F)c(Nc2ncnc3ccc(-n4nc(C(=O)NCCO)c5ccccc54)nc23)c1F
IC50 [1, 4]: < 1 nM | IC50 [2, 5]: 10 to 50 nM | HCT116 pERK Ymin % ([3]; HCT116 cells, Ymin in brackets): 3.6% | IC50 [3, 6]: < 0.5 µM

CN(CCO)c1cccc2c1ncn2-c1ccc2ncnc(Nc3c(F)ccc(NS(=O)(=O)c4cccc(Cl)c4Cl)c3F)c2n1
IC50 [1, 7]: < 1 nM | IC50 [2, 8]: < 10 nM | HCT116 pERK % Ymin (lowest value of the IC50 curve) ([3]; HCT116 cells): −8% | IC50 [3, 9]: < 0.5 µM

CCN(C)C(=O)c1cn(-c2ccc3ncnc(Nc4c(F)ccc(NS(=O)(=O)c5ccccc5Cl)c4F)c3n2)c2ccccc12
IC50 [1, 4]: < 1 nM | IC50 [2, 5]: > 50 nM | HCT116 pERK Ymin % ([3]; HCT116 cells, Ymin in brackets): −10% | IC50 [3, 6]: 0.5 to 1 µM

Cc1c(S(=O)(=O)Nc2ccc(F)c(Nc3ncnc4ccc(-n5cnc6ccccc65)nc34)c2F)ccc(F)c1F
IC50 [2, 5]: < 10 nM | HCT116 pERK Ymin % [3, 14]: −9% | IC50 [3, 15]: 0.5 to 1 µM

Cc1c(S(=O)(=O)Nc2ccc(F)c(Nc3ncnc4ccc(-n5cnc6ccccc65)nc34)c2F)ccc(Cl)c1F
IC50 [2, 5]: > 50 nM | HCT116 pERK Ymin % [3, 14]: 0.4% | IC50 [3, 15]: 1 to 10 µM

Cc1ccccc1S(=O)(=O)Nc1ccc(F)c(Nc2ncnc3ccc(-n4cnc5ccccc54)nc23)c1F
IC50 [2, 5]: < 10 nM | HCT116 pERK Ymin % [3, 14]: −0.75% | IC50 [3, 15]: 1 to 10 µM

O=S(=O)(Nc1ccc(F)c(Nc2ncnc3ccc(-n4cnc5ccccc54)nc23)c1F)c1cccc(Cl)c1Cl
IC50 [2, 5]: < 10 nM | HCT116 pERK Ymin % [3, 14]: 4% | IC50 [3, 15]: < 0.5 µM

CC(C)(C#N)S(=O)(=O)c1cn(-c2ccc3ncnc(Nc4c(F)ccc(NS(=O)(=O)c5cccc(Cl)c5Cl)c4F)c3n2)c2ccccc12
IC50 [3, 16]: < 0.5 µM

Cc1c(Cl)cccc1S(=O)(=O)Nc1ccc(F)c(Nc2ncnc3ccc(-n4cc(S(=O)(=O)N(C)CCN(C)C)c5ccccc54)nc23)c1F
IC50 [3, 16]: < 0.5 µM

O=S(=O)(CC(F)(F)F)c1cn(-c2ccc3ncnc(Nc4c(F)ccc(NS(=O)(=O)c5cccc(Cl)c5Cl)c4F)c3n2)c2ccccc12
IC50 [3, 16]: 1 to 10 µM

O=S(=O)(Cc1ccncc1)c1cn(-c2ccc3ncnc(Nc4c(F)ccc(NS(=O)(=O)c5cccc(Cl)c5Cl)c4F)c3n2)c2ccccc12
IC50 [3, 16]: < 0.5 µM

CC1(CO)CCN(c2cccc3c2ncn3-c2ccc3ncnc(Nc4c(F)ccc(NS(=O)(=O)c5cccc(Cl)c5Cl)c4F)c3n2)CC1
IC50 [3, 16]: < 0.5 µM

Cc1ncn(-c2ccc3ncnc(Nc4c(F)ccc(NS(=O)(=O)c5cccc(Cl)c5Cl)c4F)c3n2)c1C
IC50 [3, 16]: 0.5 to 1 µM

Cc1c(F)cccc1S(=O)(=O)Nc1ccc(F)c(Nc2ncnc3ccc(-n4nc(C(=O)NC(C)(C)c5ccccn5)c5ccccc54)nc23)c1F
IC50 [3, 16]: 10 to 30 µM

O=S(=O)(Nc1ccc(F)c(Nc2ncnc3ccc(-n4cc(S(=O)(=O)N5C6CCC5COC6)c5ccccc54)nc23)c1F)c1cccc(Cl)c1Cl
IC50 [3, 16]: 1 to 10 µM

CC(C)(C)OC(=O)C(C)(C)S(=O)(=O)c1cn(-c2ccc3ncnc(Nc4c(F)ccc(NS(=O)(=O)c5cccc(Cl)c5Cl)c4F)c3n2)c2ccccc12
IC50 [3, 16]: 0.5 to 1 µM

Cn1ccnc1CN1CCC(S(=O)(=O)c2cn(-c3ccc4ncnc(Nc5c(F)ccc(NS(=O)(=O)c6cccc(Cl)c6Cl)c5F)c4n3)c3ccccc23)CC1
IC50 [3, 16]: < 0.5 µM

CN1CC2CCC(C1)N2S(=O)(=O)c1cn(-c2ccc3ncnc(Nc4c(F)ccc(NS(=O)(=O)c5cccc(Cl)c5Cl)c4F)c3n2)c2ccccc12
IC50 [3, 16]: < 0.5 µM

O=S(=O)(Nc1ccc(F)c(Nc2ncnc3ccc(-c4cnn5c4CCC5)nc23)c1F)c1cccc(Cl)c1Cl
IC50 [3, 16]: 1 to 10 µM
